Experimental data reported in PubChem BioAssay AID488965 (Broad Institute, 2010).
The entries are a selection whose mix differs from that of the whole data set. Some of these compounds have results that are not shown, active ones among them. Active and inactive are the calls of the source. Cut-off read from the data, not from the text of the source: active = inhibition above about 30% (passing the limit was not always enough); inconclusive = no clear call, values can overlap the other calls.

What follows are compounds tested on PvdQ acylase [Pseudomonas aeruginosa LESB58] (assay: P. aeruginosa PvdQ acylase inhibitors, primary screen, biochemical, fluorescence, plate reader and imaging, single point (AID 488965;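 note: 0% = vehicle neutral wells and 100% = reference inhibitor wells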)). Settings: purified PvdQ acylase, at 10 µM, active compounds read high.

| SMILES | inhibition |
| --- | --- |
| CN(C)C1(CNC(=O)c2ccc(Br)cc2)CCCCC1 | inactive: -3.96% |
| COc1cc(C(=O)NCC2(N(C)C)CCCCC2)c([N+](=O)[O-])cc1OC | inactive: -15% |
| COc1ccc(Cl)cc1C(=O)NCC1(N(C)C)CCCCC1 | inactive: -10.6% |
| COc1cccc(C(=O)NCC2(N3CCCCC3)CCCCC2)c1 | inactive: -7.16% |
| O=C(NCC1(N2CCCCC2)CCCCC1)c1cccc(Cl)c1 | inactive: -3.77% |
| O=C(OC1CN2CCC1CC2)C(CO)(c1ccccc1)c1ccccc1 (stereo not given) | inactive: 7.73% |
| COc1ccc(Br)c(C(=O)NCC2(N3CCCCC3)CCCCC2)c1 | inactive: -5.05% |
| O=C(OCCN1CCCC1)C(O)(c1ccccc1)c1ccccc1 | inactive: -6.49% |
| CC(C)Oc1ccc(C(=O)NCC2(N(C)C)CCCCC2)cc1 | inactive: 4.81% |
| CN(C)c1cccc(C(=O)NCC2(N(C)C)CCCCC2)c1 | inactive: -8.77% |
| O=C(NCC1(N2CCCCC2)CCCCC1)c1cc([N+](=O)[O-])ccc1Cl | inactive: -11.6% |
| CN1[C@@H]2CC[C@H]1CC(OC(=O)C(O)(c1ccccc1)c1ccccc1)C2 (stereo not given in full) | inactive: -14.3% |
| COc1cc(SC)ccc1C(=O)NCC1(N(C)C)CCCCC1 | inactive: 7.38% |
| CCN(CC)CC(C)C(C)OC(=O)C(O)(c1ccccc1)c1ccccc1 (stereo not given) | inactive: -7.65% |
| CC(C)N1C(=O)CC2(CCN(CCOC(=O)C(O)(c3ccccc3)c3ccccc3)CC2)C1=O | inactive: -9.91% |
| Cc1ccc(C(=O)NCC2(N3CCCCC3)CCCCC2)cc1 | inactive: -16.5% |
| CN(C)c1ccc(C(=O)NCC2(N(C)C)CCCCC2)cc1 | inactive: 0.175% |
| CN(C)C1CCCC1OC(=O)C(O)(c1ccccc1)c1ccccc1 (stereo not given) | inactive: -13.4% |
| Cc1ccccc1C(=O)NCC1(N2CCCCC2)CCCCC1 | inactive: -6.49% |
| O=C(NCC1(N2CCCCC2)CCCCC1)c1cc(F)c(F)cc1Cl | inactive: -7.16% |
| C=CCN1CCN(CCOC(=O)C(O)(c2ccccc2)c2ccccc2)CC1 | inactive: -21.1% |
| COc1ccc(C(=O)NCC2(N(C)C)CCCCC2)cc1 | inactive: -13.2% |
| O=C(NCC1(N2CCCCC2)CCCCC1)c1cccc(Br)c1 | inactive: -5.86% |
| CCN1CCCC(OC(=O)C2(O)c3ccccc3C=Cc3ccccc32)C1 (stereo not given) | inactive: 1.12% |
| Cc1cc(C(=O)NCC2(N3CCCCC3)CCCCC2)ccc1[N+](=O)[O-] | inactive: -12.1% |
